Where two headings read alike, the source gives them in different places.
How the values were obtained:
[1] = biological target: αvβ3 (Homo sapiens, UniProt P05106+P06756); assay: IC50 binding activity (Example 3); conditions: Example 3, Table 1; azide-functionalized structures (1b, 2b) examined
Source text: (§1) As reported in the following Table 1, IC50 binding data was obtained for the αvβ6 integrin ligands of Structures 1 and 2:
(§2) Azide-functionalized structures (i.e., Structures 1b and 2b) were examined for IC50 under conditions typically used and known in the art.

Protein sequences, listed by entry. Tags and fused reporters are not part of them. Residues count along the entry.
UniProt P05106, 27-788 limits assumed: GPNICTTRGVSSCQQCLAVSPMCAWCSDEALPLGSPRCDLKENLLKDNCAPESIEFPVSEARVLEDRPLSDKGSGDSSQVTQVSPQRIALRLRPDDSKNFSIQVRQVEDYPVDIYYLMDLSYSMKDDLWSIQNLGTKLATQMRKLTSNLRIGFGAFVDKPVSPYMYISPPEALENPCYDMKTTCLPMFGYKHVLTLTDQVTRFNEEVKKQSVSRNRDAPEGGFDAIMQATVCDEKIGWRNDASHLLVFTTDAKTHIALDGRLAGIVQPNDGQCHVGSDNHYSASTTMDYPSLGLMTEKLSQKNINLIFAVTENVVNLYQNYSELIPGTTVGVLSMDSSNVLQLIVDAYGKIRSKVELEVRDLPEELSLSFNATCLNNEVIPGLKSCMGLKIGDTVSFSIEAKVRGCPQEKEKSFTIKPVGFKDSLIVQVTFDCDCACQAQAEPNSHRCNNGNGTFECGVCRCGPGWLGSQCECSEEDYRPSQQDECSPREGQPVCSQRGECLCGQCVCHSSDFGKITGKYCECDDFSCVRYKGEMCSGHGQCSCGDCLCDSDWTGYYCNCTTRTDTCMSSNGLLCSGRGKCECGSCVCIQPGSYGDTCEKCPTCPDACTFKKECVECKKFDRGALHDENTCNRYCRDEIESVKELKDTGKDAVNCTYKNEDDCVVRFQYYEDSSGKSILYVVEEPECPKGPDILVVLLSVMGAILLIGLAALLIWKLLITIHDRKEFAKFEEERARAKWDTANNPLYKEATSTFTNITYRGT
UniProt P06756, 31-1048 limits assumed: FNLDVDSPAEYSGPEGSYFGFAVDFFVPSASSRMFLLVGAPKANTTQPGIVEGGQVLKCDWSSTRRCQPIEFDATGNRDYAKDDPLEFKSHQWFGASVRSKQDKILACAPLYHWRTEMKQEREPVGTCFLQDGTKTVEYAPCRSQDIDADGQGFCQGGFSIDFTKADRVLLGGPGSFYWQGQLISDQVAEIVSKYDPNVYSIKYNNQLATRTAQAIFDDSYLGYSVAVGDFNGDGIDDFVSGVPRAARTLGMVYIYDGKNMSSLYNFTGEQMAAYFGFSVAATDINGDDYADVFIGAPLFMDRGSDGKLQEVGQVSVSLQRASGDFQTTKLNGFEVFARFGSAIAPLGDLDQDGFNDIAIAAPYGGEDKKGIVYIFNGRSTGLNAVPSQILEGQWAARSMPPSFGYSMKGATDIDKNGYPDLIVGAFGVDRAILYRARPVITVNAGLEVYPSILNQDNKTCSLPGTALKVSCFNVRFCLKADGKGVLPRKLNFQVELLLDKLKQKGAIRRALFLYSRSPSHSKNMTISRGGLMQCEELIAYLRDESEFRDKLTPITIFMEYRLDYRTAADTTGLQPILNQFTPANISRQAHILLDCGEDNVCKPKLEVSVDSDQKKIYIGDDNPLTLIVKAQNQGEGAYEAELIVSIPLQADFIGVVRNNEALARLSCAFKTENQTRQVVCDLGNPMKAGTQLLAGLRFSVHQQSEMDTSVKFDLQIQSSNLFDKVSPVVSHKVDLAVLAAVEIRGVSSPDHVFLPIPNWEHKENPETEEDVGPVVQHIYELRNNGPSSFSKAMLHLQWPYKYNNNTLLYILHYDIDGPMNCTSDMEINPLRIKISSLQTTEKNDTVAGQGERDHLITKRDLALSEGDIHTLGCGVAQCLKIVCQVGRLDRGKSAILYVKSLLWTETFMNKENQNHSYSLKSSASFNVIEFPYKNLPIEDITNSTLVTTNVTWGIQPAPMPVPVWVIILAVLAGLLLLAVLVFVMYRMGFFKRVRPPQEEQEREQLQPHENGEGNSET
UniProt P18084, 24-799 limits assumed: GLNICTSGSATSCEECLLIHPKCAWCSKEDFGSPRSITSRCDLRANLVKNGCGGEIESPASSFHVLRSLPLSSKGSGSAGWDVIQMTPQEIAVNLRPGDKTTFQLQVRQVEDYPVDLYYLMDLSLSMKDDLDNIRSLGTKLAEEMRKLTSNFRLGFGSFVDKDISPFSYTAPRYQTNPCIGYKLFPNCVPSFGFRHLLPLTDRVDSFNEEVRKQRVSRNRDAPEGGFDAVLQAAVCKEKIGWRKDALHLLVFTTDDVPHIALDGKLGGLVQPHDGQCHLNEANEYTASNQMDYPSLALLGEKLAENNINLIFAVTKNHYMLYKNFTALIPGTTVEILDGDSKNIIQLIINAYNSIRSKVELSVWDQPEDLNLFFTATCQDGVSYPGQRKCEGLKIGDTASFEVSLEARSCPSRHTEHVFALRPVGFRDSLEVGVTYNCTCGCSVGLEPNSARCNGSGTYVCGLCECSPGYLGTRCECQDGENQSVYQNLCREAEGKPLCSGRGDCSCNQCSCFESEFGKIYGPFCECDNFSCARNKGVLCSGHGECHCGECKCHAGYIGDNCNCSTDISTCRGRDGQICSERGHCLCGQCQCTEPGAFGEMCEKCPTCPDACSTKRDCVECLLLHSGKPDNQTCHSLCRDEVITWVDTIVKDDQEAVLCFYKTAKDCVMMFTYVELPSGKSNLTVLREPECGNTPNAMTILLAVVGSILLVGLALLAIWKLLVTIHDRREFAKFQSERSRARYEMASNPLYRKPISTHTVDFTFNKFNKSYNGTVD
UniProt P18564, 22-788 limits assumed: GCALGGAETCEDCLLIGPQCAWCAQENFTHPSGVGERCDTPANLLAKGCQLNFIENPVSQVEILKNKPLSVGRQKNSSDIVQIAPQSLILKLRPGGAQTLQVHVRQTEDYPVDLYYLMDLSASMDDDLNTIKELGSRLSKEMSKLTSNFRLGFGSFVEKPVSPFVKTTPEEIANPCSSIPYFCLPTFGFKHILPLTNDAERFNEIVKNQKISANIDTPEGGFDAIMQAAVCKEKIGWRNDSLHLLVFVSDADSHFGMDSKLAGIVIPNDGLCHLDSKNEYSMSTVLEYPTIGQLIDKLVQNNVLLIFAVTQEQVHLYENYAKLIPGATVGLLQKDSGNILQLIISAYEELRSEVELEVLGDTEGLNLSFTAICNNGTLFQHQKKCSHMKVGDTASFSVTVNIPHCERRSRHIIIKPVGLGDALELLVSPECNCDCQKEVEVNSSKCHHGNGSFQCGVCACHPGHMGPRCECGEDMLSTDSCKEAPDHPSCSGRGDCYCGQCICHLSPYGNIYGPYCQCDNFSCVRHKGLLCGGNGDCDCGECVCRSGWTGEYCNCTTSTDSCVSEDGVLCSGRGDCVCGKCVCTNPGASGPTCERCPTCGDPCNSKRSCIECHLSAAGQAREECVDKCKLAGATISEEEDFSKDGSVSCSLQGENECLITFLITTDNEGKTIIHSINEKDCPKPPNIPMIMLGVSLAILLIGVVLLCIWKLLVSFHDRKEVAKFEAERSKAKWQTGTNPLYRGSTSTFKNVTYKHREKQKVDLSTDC

[2] = biological target: αvβ5 (Homo sapiens, UniProt P06756+P18084); assay: IC50 binding activity (Example 3); conditions: Example 3, Table 1; azide-functionalized structures (1b, 2b) examined
Source text: as §1, §2

[3] = biological target: αvβ6 integrin (Homo sapiens, UniProt P06756+P18564); assay: IC50 binding activity (Examples 3 and 12); conditions: for selective binding to αvβ6 integrin: Example 3, versus αvβ3 and αvβ5; for IC50: read-out: IC50 (nM) αvβ6
Source text: as §1, §2
As reported in the following Table 17, additional IC50 binding data was obtained for the αvβ6 integrin ligands of Structures 2, 6.1, 7, and 23 used in certain Examples herein:
Azide-functionalized structures (i.e., Structures 2b and 6.1b, 7b, and 23b) were examined for IC50 under conditions typically used and known in the art.

[4] = Example 3, Table 1, azide-functionalized structures (1b, 2b) examined
[5] = Example 12, Table 17, azide-functionalized structures (2b, 6.1b, 7b, 23b) examined

| IC50 (nM) αvβ3 [1] | IC50 (nM) αvβ5 [2] | selective binding to αvβ6 integrin [3] | IC50 [3, 4] | IC50 [3, 5] | SMILES |
| --- | --- | --- | --- | --- | --- |
| not active | not active | selective binding | 129 nM | 205 nM | Cc1ccnc(NCCCC(=O)N[C@@H](COCCOCCOCCOCCN=[N+]=[N-])C(=O)N[C@@H](CC(=O)O)c2ccc(-c3cccc4ccccc34)cc2)c1 |
|  |  |  |  | 382 nM | Cc1ccnc(NCCCC(=O)NCC(=O)N[C@H](CC(=O)O)c2ccc(-c3ccc(OCCOCCOCCN=[N+]=[N-])c4ccccc34)cc2)c1 |
|  |  |  |  | 760 nM | Cc1ccnc(NCCCC(=O)N[C@H](C(=O)N[C@@H](CC(=O)O)c2ccc(-c3ccc(OCCOCCOCCOCCOCCN=[N+]=[N-])c4ccccc34)cc2)C(C)C)c1 |
| not active | not active | selective binding | 13 nM |  | Cc1ccnc(NCCCCC(=O)N[C@@H](COCCOCCOCCOCCN=[N+]=[N-])C(=O)N[C@@H](CC(=O)O)c2ccc(-c3cccc4ccccc34)cc2)c1 |

Source: patent publication US11597701B2, “Integrin ligands and uses thereof” (Arrowhead Pharmaceuticals, Inc., priority 2017, dated 2023)
